Earlier results in patent US4469691A, “Hexamethylenetetramine-N-acetyl-thiazolidine-4-carboxylate, a process for its preparation and a pharmaceutical composition containing it” (Ausonia Farmaceutici s.r.l., priority 1982, dated 1984).

Conditions: in vivo; cited from earlier work

## C1N2CN3CN1CN(C2)C3 [EMTA, hexamethylenetetramine]
  Absorption (in words): readily absorded
